Assay results taken from patent publication US8697683B2, “Azetidinyl diamides as monoacylglycerol lipase inhibitors” (Janssen Pharmaceutica, NV, priority 2009, dated 2014).

By UniProt entry, the sequences of proteins in these tests, tags left out.
UniProt Q99685, whole entry: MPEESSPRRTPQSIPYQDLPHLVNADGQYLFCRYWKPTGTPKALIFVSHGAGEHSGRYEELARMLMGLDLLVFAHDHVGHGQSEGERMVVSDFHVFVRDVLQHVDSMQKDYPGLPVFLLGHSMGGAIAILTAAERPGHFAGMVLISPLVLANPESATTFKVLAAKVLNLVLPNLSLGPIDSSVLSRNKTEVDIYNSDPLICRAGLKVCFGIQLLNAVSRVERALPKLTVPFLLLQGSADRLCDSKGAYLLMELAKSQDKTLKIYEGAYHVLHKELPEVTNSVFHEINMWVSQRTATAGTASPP

Biological target: purified wild type MGL (wt-MGLL 6H-11-313) (Homo sapiens, UniProt Q99685)

## O=C(c1nccs1)N1CCN(C2CN(C(=O)c3cccc4c3CN(c3ncccn3)CC4)C2)CC1
  IC50: 2790 nM
